Data as given in ChEMBL document CHEMBL4699543, “Preparation and evaluation of soluble epoxide hydrolase inhibitors with improved physical properties and potencies for treating diabetic neuropathic pain” (Bioorg Med Chem, 2020).

Test: Lipophilicity, logP of compound at 100 uM incubated for 90 mins by HPLC analysis
Assay type: physicochemical

SMILES | logP at […], 100 µM
Cc1occc1C(=O)N1CCC(NC(=O)Nc2ccc(C(F)(F)F)cc2)CC1 | 4.19
O=C(Nc1ccc(OC(F)(F)F)cc1)NC1CCN(C(=O)c2cc[nH]c2)CC1 | 3.34
O=C(Nc1ccc(OC(F)(F)F)cc1)NC1CCN(C(=O)c2ccoc2)CC1 | 3.63
O=C(Nc1ccc(OC(F)(F)F)cc1)NC1CCN(C(=O)C2=COCC2)CC1 | 3.49
O=C(Nc1ccc(C(F)(F)F)cc1)NC1CCN(C(=O)c2ccoc2)CC1 | 3.5
Cc1ccoc1C(=O)N1CCC(NC(=O)Nc2ccc(OC(F)(F)F)cc2)CC1 | 4.48
O=C(Nc1ccc(OC(F)(F)F)c(F)c1)NC1CCN(C(=O)C2CCCOC2)CC1 (centres undefined) | 4.09
O=C(Nc1ccc(C(F)(F)F)cc1)NC1CCN(C(=O)C2CCOCC2)CC1 | 3.16
O=C(Nc1ccc(OC(F)(F)F)cc1)NC1CCN(C(=O)C2CCCOC2)CC1 (racemic) | 3.42
